Chains of the proteins cited; added tags and fusions are not shown. Lines headed by an entry give the natural chain unless they say otherwise; changes in a name come on top.
UniProt P20309, whole entry: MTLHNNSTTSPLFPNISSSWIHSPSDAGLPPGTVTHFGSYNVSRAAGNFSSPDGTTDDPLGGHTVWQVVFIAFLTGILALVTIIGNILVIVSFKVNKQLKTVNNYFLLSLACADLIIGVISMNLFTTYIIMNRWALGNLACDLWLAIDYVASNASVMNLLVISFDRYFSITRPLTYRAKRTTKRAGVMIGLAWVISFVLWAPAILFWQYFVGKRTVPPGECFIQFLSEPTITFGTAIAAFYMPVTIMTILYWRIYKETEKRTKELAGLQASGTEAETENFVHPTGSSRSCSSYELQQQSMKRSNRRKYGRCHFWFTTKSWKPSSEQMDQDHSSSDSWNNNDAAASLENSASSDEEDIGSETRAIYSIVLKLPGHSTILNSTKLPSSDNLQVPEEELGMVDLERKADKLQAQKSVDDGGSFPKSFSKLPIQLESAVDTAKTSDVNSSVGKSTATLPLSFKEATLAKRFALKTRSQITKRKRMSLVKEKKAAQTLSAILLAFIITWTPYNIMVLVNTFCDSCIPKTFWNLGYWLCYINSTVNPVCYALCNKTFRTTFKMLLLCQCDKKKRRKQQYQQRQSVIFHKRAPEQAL
UniProt P11229: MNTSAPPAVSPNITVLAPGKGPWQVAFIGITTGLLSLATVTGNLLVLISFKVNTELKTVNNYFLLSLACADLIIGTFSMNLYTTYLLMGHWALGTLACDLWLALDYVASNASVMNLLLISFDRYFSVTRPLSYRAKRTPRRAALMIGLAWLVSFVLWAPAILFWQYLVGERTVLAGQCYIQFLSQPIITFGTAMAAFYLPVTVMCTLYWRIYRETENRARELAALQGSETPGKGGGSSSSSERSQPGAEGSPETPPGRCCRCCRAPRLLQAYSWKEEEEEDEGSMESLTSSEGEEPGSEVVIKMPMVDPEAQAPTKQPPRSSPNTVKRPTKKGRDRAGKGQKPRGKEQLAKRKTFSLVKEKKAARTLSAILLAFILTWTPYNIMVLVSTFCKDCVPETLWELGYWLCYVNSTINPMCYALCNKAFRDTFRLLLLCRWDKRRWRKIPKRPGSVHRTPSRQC
UniProt P08912, whole entry: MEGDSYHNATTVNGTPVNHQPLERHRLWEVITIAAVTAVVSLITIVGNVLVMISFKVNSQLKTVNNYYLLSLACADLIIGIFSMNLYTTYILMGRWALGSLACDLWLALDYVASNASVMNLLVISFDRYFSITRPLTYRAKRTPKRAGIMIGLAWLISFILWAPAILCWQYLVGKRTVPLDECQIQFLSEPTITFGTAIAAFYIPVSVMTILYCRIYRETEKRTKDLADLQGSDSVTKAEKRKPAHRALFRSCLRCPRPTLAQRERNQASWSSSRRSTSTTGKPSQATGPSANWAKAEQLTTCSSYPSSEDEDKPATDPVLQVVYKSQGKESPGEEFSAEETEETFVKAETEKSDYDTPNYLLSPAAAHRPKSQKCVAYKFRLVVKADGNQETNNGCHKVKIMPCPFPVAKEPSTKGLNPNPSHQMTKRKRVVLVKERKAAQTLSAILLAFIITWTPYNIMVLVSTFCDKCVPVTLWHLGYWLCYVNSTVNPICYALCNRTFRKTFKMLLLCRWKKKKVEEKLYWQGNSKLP

In ChEMBL document CHEMBL1140814 (Bioorg Med Chem Lett, 2008):

Tests used:
[1] = target: Muscarinic acetylcholine receptor M3 (Homo sapiens, UniProt P20309); assay: biochemical; type: cell-based, CHO
[2] = target: Muscarinic acetylcholine receptor M1 (Homo sapiens, UniProt P11229); assay: biochemical; type: cell-based, CHO
[3] = target: Muscarinic acetylcholine receptor M5 (Homo sapiens, UniProt P08912); assay: Displacement of [3H]NMS from human cloned muscarinic M5 receptor expressed in CHO cells; type: cell-based

SMILES | Ki [1] [µM] | Ki [2] [µM] | Ki [3] [µM]
CC1COCC(C[N+](C)(C)C)O1.[I-] (racemic; form 1) | 7.59 | 30.2 | 
CC1COCC(C[N+](C)(C)C)O1.[I-] (racemic; form 2) | 35.5 | > 100 | 
C[C@H]1COC[C@@H](C[N+](C)(C)C)O1.[I-] | 3.39 | 12.9 | 
C[C@@H]1COC[C@@H](C[N+](C)(C)C)O1.[I-] | 61.7 |  | 
C[C@@H]1COC[C@H](C[N+](C)(C)C)O1.[I-] | 36.3 | > 100 | 
C[C@H]1COC[C@H](C[N+](C)(C)C)O1.[I-] | 23.4 | 74.1 | 30.2
